Results reported in patent US20260191856A1 (priority 2022, published 2026).

Tests used:
MOR [1] = molecular target: MOR (Mus musculus, UniProt P42866); assay: GTP turnover assay (GTPase-GLO) with purified MOR and Gi; assay type: biochemical; details: for inhibition of fentanyl-induced GTP turnover: fentanyl (5 μM)
MOR [2] = molecular target: MOR (Homo sapiens, UniProt P35372); assay: TRUPATH assay, Gi/o/z activation by orthosteric μOR agonists; assay type: cell-based; details: in the presence of compound A3
male C57BL/6J mice = assay: 55° C. warm-water tail-withdrawal assay (antinociception); assay type: in vivo, mouse; details: fentanyl (0.4 mg/kg)

CNC(=O)[C@@H](Cc1ccc(C)c(OC)c1)NC(=O)CSc1ccc2ccccc2c1-c1cncc(OCc2ccccc2)c1
inhibition of fentanyl-induced GTP turnover (MOR [1]): does not display full inhibition even at 20 μM

CNC(=O)C(Cc1ccc(C)c(OC)c1)NC(=O)CSc1ccc2ccccc2c1-c1cncc(OCc2ccccc2)c1 (racemic) [Compound A3, 2-(2-((1-(5-(benzyloxy)pyridin-3-yl)naphthalen-2-yl)thio)acetamido)-3-(3-methoxy-4-methylphenyl)-N-methylpropanamide]
inhibition of fentanyl-induced GTP turnover (MOR [1]): potently inhibit fentanyl (5 μM)-induced GTP turnover | decrease of observed potency of morphine, fentanyl, and met-enkephalin (MOR [2]): ≥ 10 fold | potentiation of naloxone antagonism of fentanyl-induced antinociception (male C57BL/6J mice): this effect was not observed against fentanyl (0.4 mg/kg)-induced antinociception

CNC(=O)[C@H](Cc1ccc(C#N)cc1)NCc1csc(-c2cccc(-c3ccc4cc(N)ccc4c3)c2)n1 [Compound A1]
effect on GTP turnover with other orthosteric ligands (MOR [1]; naloxone, MP, met-enkephalin, DAMGO, BU72): enhances the efficacy of all orthosteric agonists

CNC(=O)[C@H](Cc1ccc(C)c(OC)c1)NC(=O)CSc1ccc2ccccc2c1-c1cncc(OCc2ccccc2)c1 [Compound B1, (S)-2-(2-((1-(5-(benzyloxy)pyridin-3-yl)naphthalen-2-yl)thio)acetamido)-3-(3-methoxy-4-methylphenyl)-N-methylpropanamide]
inhibition of fentanyl-induced GTP turnover (MOR [1]): retains the ability to potently inhibit fentanyl (5 μM)-induced GTP turnover
